In US11744863B2, “Process for preparing a pooled human platelet lysate, pooled human platelet lysate and its use for treating neurological disorders” (priority 2017, dated 2023):

System: FVB-Tg(Sod1*G86R) mice
Assay: Survival of treated ALS model mice
Assay type: in vivo
Conditions: Tg males
Description: The mice enrolled were FVB-Tg(Sod1*G86R)M1Jwg/J mice from JAX laboratories. Animals were group-housed (10 per cage) in a temperature-controlled room (22±2° C.) with a 12/12-hour light/dark cycle. Food and water were feed ad-libitum. […] Breeding was realized (since 2013 may) in SOPF facility and genotyping is performed by qPCR (from tail biopsy). Animal are identified with earrings.
Mice were handled and weighted at the age of 60 days. Canula implantation in intra cerebro-ventricular (ICV) by stereotaxie start at this date and mice are acclimated during 1 week.
(Gurney and al, Neurology, 1998). Then they were evaluated, twice a week (i.e. body weight and neuroscore), from the age of 67 days to their death.
Two different treatments are performed from 75 days to death: • HT_pHPL prepared as described in example 1 and at 1 g/L, pH 7.4 versus vehicle. The dose of HT_pHPL administrated by intermittent ICV was 4 μL, three times a week at rate of 0.5 μL/min. […]

**Q.** How did the “effect in survival duration” value turn out when Nc1nc2ccc(OC(F)(F)F)cc2s1 [Riluzole] was run?
**A.** no effect

**Q.** And the onset of death (Day 91 without treatment)?
**A.** 102 days
